# Results as given in patent publication EP1076558B1, “2-PHENYL-1-[-(2-AMINOETHOXY)-BENZYL -INDOLE IN COMBINATION WITH ESTROGENS” (Wyeth, priority 1998, dated 1999).
# The chains behind the UniProt entries cited, without tags or fusion partners.
# UniProt P03372, whole entry: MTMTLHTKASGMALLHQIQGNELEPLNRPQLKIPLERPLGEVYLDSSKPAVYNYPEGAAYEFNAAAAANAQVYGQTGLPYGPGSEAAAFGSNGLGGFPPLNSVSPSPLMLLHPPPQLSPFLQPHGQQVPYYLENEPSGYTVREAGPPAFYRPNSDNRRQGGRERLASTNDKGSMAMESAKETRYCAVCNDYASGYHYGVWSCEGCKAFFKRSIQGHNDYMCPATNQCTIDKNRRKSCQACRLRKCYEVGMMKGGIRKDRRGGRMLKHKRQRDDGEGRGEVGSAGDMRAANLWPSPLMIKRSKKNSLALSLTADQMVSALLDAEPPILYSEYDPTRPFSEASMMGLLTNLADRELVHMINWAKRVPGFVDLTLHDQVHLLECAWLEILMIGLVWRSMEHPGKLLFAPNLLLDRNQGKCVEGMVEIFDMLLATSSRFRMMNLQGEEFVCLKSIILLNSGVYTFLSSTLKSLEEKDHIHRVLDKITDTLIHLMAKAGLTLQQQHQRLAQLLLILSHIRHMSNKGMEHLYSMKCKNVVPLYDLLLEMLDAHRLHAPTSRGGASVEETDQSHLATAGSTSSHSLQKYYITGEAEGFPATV
# Molecular target: estrogen receptor (Homo sapiens, UniProt P03372)
# Experiment: In vitro estrogen receptor binding assay
row,Structure (SMILES),IC50
1,"COc1ccc(-c2c(C)c3cc(OC)ccc3n2Cc2ccc(OCCN3CCCCCC3)cc2)cc1 [Example No. 91, 1-[4-(2-Azepan-1-yl-ethoxy)-benzyl]-5-methoxy-2-(4-methoxy-phenyl)-3-methyl-1H-indole]",520 nM
2,"Cc1c(-c2ccc(O)cc2)n(Cc2ccc(OCCN(C)C)cc2)c2ccc(O)cc12 [Example No. 100, 2-(4-Hydroxy-phenyl)-3-methyl-1-[4-(2-dimethyl-1-yl-ethoxy)-benzyl]-1H-indol-5-ol]",60 nM
